Ab-14 light chain CDR variants: yeast mating affinities

Binding partner: SARS-CoV-2 spike HR2 peptide, sequence PDVDLGDISGINAS.

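AAYL50 was designed without a model: most single CDR substitutions and a random sample of double and triple ones. The scFvs were displayed on barcoded MATa yeast, the peptide on MATalpha yeast. Mating (16 h, 30 °C) was followed by selection of diploids and sequencing of their barcodes. Scores were corrected for input abundance and mapped to Kd with protein pairs of known affinity run in the same pool. There are three technical replicates.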

Each scFv is VH, a (GGGGS)3 linker, VL, as in the parent Ab-14, and differs from it in the CDRs of the light chain only.
VH: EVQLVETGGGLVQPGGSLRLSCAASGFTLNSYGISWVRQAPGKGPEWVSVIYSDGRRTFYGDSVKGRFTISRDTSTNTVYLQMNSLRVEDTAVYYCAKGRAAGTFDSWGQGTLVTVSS
VL: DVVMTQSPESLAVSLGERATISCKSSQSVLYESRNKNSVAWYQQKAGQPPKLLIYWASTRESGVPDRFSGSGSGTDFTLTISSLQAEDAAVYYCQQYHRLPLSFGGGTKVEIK

The parent's light chain CDRs are KSSQSVLYESRNKNSVA, WASTRES, QQYHRLPLS; each variant's own CDRs replace them letter for letter.
Numbers give log10(Kd / nM), so 0 is 1 nM and 3 is 1 µM. Smaller is tighter.
"n.d." marks a missing value. The strain was present, yet no cells mated with the target were sequenced in that replicate, which points to weak or no binding.

{"CDR-L1": "WSSQSNLYESRNNNSVA", "CDR-L2": "WASTRES", "CDR-L3": "QQYHRLPLS", "log10 Kd, replicates": "2.13 2.88 2.97", "empty controls": "1/9 (4.09)"}
{"CDR-L1": "KSSQNVLYESRNKNSVM", "CDR-L2": "WASTRES", "CDR-L3": "QQYHRLPLS", "log10 Kd, replicates": "n.d. n.d. n.d.", "empty controls": "1/9 (1.86)"}
{"CDR-L1": "KDSQSVLYESRNKNSVA", "CDR-L2": "WASTRES", "CDR-L3": "QQYHRLPLH", "log10 Kd, replicates": "0.63 0.97 0.89", "empty controls": "1/9 (5.47)"}
{"CDR-L1": "KMSCSVLYESRNKNSVA", "CDR-L2": "WASTRES", "CDR-L3": "QQYFRLPLS", "log10 Kd, replicates": "2.15 2.32 2.04", "empty controls": "0/9"}
{"CDR-L1": "KSSQSMLYESRNKNSVK", "CDR-L2": "WASTPES", "CDR-L3": "QQYHRLPLS", "log10 Kd, replicates": "3.64 n.d. n.d.", "empty controls": "3/9 (4.19)"}
{"CDR-L1": "KSSQSVLYESRNKNSVA", "CDR-L2": "WASTRLS", "CDR-L3": "QQYHNRPLS", "log10 Kd, replicates": "n.d. n.d. n.d.", "empty controls": "0/9"}
{"CDR-L1": "KSSRSVLYENRLKNSVA", "CDR-L2": "WASTRES", "CDR-L3": "QQYHRLPLS", "log10 Kd, replicates": "1.35 1.57 1.13", "empty controls": "1/9 (3.41)"}
{"CDR-L1": "KSSQFVNYESRNKNSCA", "CDR-L2": "WASTRES", "CDR-L3": "QQYHRLPLS", "log10 Kd, replicates": "n.d. n.d. n.d.", "empty controls": "0/9"}
{"CDR-L1": "KKSQSVLYELRNKNSVA", "CDR-L2": "WASTRES", "CDR-L3": "HQYHRLPLS", "log10 Kd, replicates": "n.d. n.d. n.d.", "empty controls": "0/9"}
{"CDR-L1": "KSSQSVLCESRNKNSVA", "CDR-L2": "WASTRDC", "CDR-L3": "QQYHRLPLS", "log10 Kd, replicates": "2.64 3.24 3.98", "empty controls": "1/9 (3.03)"}
{"CDR-L1": "KSSQSVLYESRDKNSVA", "CDR-L2": "VASTRES", "CDR-L3": "QQYHRYPLS", "log10 Kd, replicates": "n.d. 4.47 n.d.", "empty controls": "3/9 (4.17)"}
{"CDR-L1": "KSSQSVLWESRNKNSVA", "CDR-L2": "WASTRNS", "CDR-L3": "QQYHRLPLS", "log10 Kd, replicates": "4.79 n.d. n.d.", "empty controls": "1/9 (3.36)"}
{"CDR-L1": "KSSQSVLYESRNKNSVW", "CDR-L2": "WASTRES", "CDR-L3": "QQYHRLPLS", "log10 Kd, replicates": "4.10 n.d. n.d.", "empty controls": "2/9 (2.99)"}
{"CDR-L1": "KSSQSVLYESYNKNSVD", "CDR-L2": "WASTRES", "CDR-L3": "QQYNRLPLS", "log10 Kd, replicates": "n.d. n.d. n.d.", "empty controls": "1/9 (3.18)"}
{"CDR-L1": "KSSQSVLQESRNKNDVA", "CDR-L2": "WASTRES", "CDR-L3": "QQYHRLRLS", "log10 Kd, replicates": "n.d. n.d. n.d.", "empty controls": "0/9"}
{"CDR-L1": "KSSQSPLYESRNKNSVA", "CDR-L2": "WASTRES", "CDR-L3": "QFYHRLPLS", "log10 Kd, replicates": "2.11 2.00 2.11", "empty controls": "3/9 (4.12)"}
{"CDR-L1": "KPSSSVLYWSRNKNSVA", "CDR-L2": "WASTRES", "CDR-L3": "QQYHRLPLS", "log10 Kd, replicates": "1.51 1.72 2.12", "empty controls": "4/9 (4.21)"}
{"CDR-L1": "KSSQSVLFESRNKNSVA", "CDR-L2": "WASTRES", "CDR-L3": "QQYGRLHLS", "log10 Kd, replicates": "4.75 3.36 n.d.", "empty controls": "1/9 (3.89)"}

The 3 strongest on average among those seen in every replicate, once more:

CDR-L1,CDR-L2,CDR-L3,"log10 Kd, replicates",empty controls
KDSQSVLYESRNKNSVA,WASTRES,QQYHRLPLH,0.63 0.97 0.89,1/9 (5.47)
KSSRSVLYENRLKNSVA,WASTRES,QQYHRLPLS,1.35 1.57 1.13,1/9 (3.41)
KPSSSVLYWSRNKNSVA,WASTRES,QQYHRLPLS,1.51 1.72 2.12,4/9 (4.21)

Parent in this assay: reference entry 0.65, copy in this library 1.68.
As a blank, each scFv also met three strains without target: over library AAYL50, 18% of these pairings were detected, typically at 4.19 and seldom below 2.99. For each scFv, signals with the empty controls are counted beside the result, with their mean in brackets.

The measurements come from Engelhart et al. 2022 (doi:10.1038/s41597-022-01779-4) through the FLAb antibody collection.